Biological target: Acetylcholinesterase (Rattus norvegicus, UniProt P37136)
Assay: cholinesterase inhibitory activity using (acetyl-[^3 H])-acetylcholine, S1 fraction of rat cerebral cortex homogenate
Assay type: biochemical, male Wistar rat
Settings: read-out: Acetylcholinesterase Inhibitory Activity IC50, 30 min incubation, tested form: 2HCl.3/2H2O

Amino acid sequences for entries named in this document (tags omitted). Residues count along the entry.
UniProt P37136, 32-614 limits assumed: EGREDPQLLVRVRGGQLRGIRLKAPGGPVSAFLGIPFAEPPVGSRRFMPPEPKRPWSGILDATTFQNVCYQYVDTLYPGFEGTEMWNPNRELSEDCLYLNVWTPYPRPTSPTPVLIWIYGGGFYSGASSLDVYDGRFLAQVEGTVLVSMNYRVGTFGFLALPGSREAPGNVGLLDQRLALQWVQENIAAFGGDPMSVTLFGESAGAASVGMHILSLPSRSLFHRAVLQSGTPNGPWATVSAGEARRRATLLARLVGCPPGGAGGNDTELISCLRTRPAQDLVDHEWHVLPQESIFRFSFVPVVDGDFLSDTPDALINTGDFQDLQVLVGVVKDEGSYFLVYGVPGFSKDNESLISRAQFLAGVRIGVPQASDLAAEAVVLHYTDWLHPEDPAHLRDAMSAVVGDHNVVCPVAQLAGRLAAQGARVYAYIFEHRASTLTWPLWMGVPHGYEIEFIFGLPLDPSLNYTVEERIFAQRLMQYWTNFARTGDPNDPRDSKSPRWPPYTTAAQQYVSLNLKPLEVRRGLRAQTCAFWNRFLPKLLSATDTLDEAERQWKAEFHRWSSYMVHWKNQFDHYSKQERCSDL

O=C(CCN1CCN(Cc2ccccc2)CC1)c1cc2c3c(c1)CC(=O)N3CCCCC2
IC50: 24 nM
